# Source: patent US20210330611A1, “THERAPY FOR NEUROLOGICAL DISEASES/DISORDERS” (priority 2020, published 2021)
# Experiments:
# [1] = test system: fibrin-induced microglia activation; experiment: Image-based assay of fibrin-induced microglia activation (HTS and dose response); type: cell-based, rat
# [2] = test system: LPS-induced microglia activation; experiment: Image-based assay of LPS-induced microglia activation (HTS and dose response); type: cell-based, rat
# [3] = test system: fibrin- and LPS-induced microglia activation
# primary rat microglia [4] = experiment: Cell toxicity (dead cells, size <150 μm2) in LPS assay
# primary rat microglia [5] = experiment: Cell toxicity (dead cells, size <150 μm2) in coated fibrin (cFib) assay;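 also: share of dead cells sized under 150 µm2 at 10 µM in fibrin-stimulated microglia HTS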
molecule,measurement,setting,value
O=C(OC1CN2CCC1CC2)c1ccccc1 (stereo not shown),Fibrin % inhibition,"[1]; primary microglia HTS, fibrin stimulation, compounds at 10 μM",−55%
same,LPS % inhibition,"[2]; primary microglia HTS, LPS stimulation, compounds at 10 μM",5%
same,Quadrant (FIG. 5b),"[3]; quadrant by fibrin and LPS inhibition, HTS at 10 μM",Q4
same,LPS % cell toxicity,"primary rat microglia [4]; primary microglia HTS, LPS assay, dead cells (size <150 μm2)",0%
same,Fibrin % cell toxicity,"primary rat microglia [5]; primary microglia HTS, fibrin assay, dead cells (size <150 μm2)",1%
NC(=O)Nc1ccc([As](=O)(O)O)cc1,Fibrin % inhibition,"[1]; primary HTS, 10 μM, fibrin-stimulated primary microglia",−4%
same,LPS % inhibition,"[2]; primary HTS, 10 μM, LPS-stimulated primary microglia",17%
same,Quadrant (FIG. 5b),"[3]; primary HTS, 10 μM",Q4
same,LPS % cell toxicity,"primary rat microglia [4]; primary HTS, 10 μM, LPS assay, dead cells size <150 μm2",0%
same,Fibrin % cell toxicity,"primary rat microglia [5]; primary HTS, 10 μM, fibrin assay, dead cells size <150 μm2",1%
Sodium Monofluorophosphate,Quadrant (FIG. 5b),[3]; classification by fibrin and LPS inhibition in HTS,Q4
same,LPS % cell toxicity,"primary rat microglia [4]; primary microglia HTS, LPS stimulation, cell size <150 μm2 as marker of toxicity",0%
same,Fibrin % cell toxicity,"primary rat microglia [5]; primary microglia HTS, fibrin stimulation, cell size <150 μm2 as marker of toxicity",0%

# Read-outs that look alike come from different tables or passages of the source.
